Reference: article PMC8406172, “Mechanism of DNA Interaction and Translocation by the Replicase of a Circular Rep-Encoding Single-Stranded DNA Virus” (mBio, 2021)

System: Nc1ncnc2c1ncn2[C@@H]1O[C@H](COP(=O)(O)OP(=O)(O)OP(=O)(O)O)[C@@H](O)[C@H]1O
Assay: purified protein
Conditions: 66 nM Rep, room temperature; copurifying DNA present

## PCV2 Rep (replicase) (Porcine circovirus 2)
  K0.5: 261.1 µM
  kcat: 0.63 s⁻¹
